Where two headings read alike, the source gives them in different places.
Legend:
[1] = Pharmacokinetic test in mice; details: mouse
Method: ICR male mice (15 to 35 g, 5 to 10 weeks old, Shanghai Xipuer-Bikai Experimental Animal Co., Ltd.) were selected as test animals in this study. The LC-MS/MS method was used to quantitatively determine drug concentrations in the plasma of mice at different time points after intravenous injection or oral gavage administration of the test compound to evaluate the pharmacokinetic characteristics of the compound in mice. The clear solution of the test compound was injected into ICR mice via the tail vein (without fasting, solvent: 40% hydroxypropyl-β-cyclodextrin) and administered to ICR mice by oral gavage (fasting for 10 to 14 hours, free drinking water, solvent: 0.2% hydroxypropyl cellulose, 0.5% Tween 80). For intravenous administration, blood was collected from the submandibular venous plexus at 0.033, 0.083, 0.25, 0.5, 1, 2, 4, 8, and 24 hours after administration, placed in an anticoagulant tube with EDTA-K2 (Jiangsu Kangjian Medical Supplies Co., Ltd.), mixed, and centrifuged at 2-8° C., 6800 g for 6 minutes to obtain plasma; for oral gavage administration, blood was collected from the submandibular venous plexus at 0.083, 0.25, 0.5, 1, 2, 4, 6, 8, and 24 hours after administration, placed in an anticoagulant tube with EDTA-K2 (Jiangsu Kangjian Medical Supplies Co., Ltd.), mixed, and centrifuged at 2-8° C., 6800 g for 6 minutes to obtain plasma. The blood drug concentration was determined by LC-MS/MS, and the relevant pharmacokinetic parameters were calculated by the non-compartmental linear logarithmic trapezoidal method using Phoenix WinNonlin™ Version 7.0 (Pharsight, USA) pharmacokinetic software.

Amino acid sequences for entries named in this document (tags omitted).
UniProt P08684, whole entry: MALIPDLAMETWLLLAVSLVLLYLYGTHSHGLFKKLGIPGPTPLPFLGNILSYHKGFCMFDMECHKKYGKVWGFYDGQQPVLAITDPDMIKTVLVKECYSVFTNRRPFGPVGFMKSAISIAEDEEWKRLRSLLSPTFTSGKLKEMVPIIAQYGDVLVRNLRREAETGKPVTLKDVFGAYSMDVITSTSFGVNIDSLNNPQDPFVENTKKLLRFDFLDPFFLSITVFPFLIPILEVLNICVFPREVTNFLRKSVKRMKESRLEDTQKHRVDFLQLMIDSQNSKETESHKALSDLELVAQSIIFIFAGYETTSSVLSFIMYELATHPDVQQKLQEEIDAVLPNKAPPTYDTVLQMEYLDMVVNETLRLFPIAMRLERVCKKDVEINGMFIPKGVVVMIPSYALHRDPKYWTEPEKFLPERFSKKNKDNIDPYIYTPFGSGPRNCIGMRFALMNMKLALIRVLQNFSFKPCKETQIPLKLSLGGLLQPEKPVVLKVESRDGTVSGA

[2] = target: CYP 3A4 (Homo sapiens, UniProt P08684); experiment: CYP 3A4 time-dependent inhibition test; details: midazolam substrate
[3] = target: p53 Y220C (Homo sapiens, UniProt P04637, Y220C); experiment: DNA binding test (HTRF): binding of P53Y220C protein to DNA; assay type: biochemical; details: multiple ratio of EC50 of the compound to the reference compound, DNA binding test
Method: In order to detect the ability of the aforementioned compounds to increase the binding of P53Y220C protein to DNA, the binding activity of p53 Y220C was measured by homogeneous time-resolved fluorescence (HTRF). Recombinant His-tagged p53 Y220C for HTRF measurement was expressed in bacteria E. coli. The recombinant protein was a truncated mutant containing only amino acids 94-312 of p53, and its sequence was […] […] VEGNLR VEYLDDRN TFRh[…] […]. The sense strand of the DNA double strand was 5′-[…]-3′, with a biotin tag at the 5′ end for activity assay, and the antisense strand was 5′-[…]-3′ 40 mL of assay buffer (20 mM Tris HCL, pH 7.5, 50 mM NaCl, 2 mM MgCl2, 0.02% Tween 20, 0.01% BSA, 1 mM DTT) was prepared. 10 mM compound was prepared and subjected to 3-fold dilution to obtain 10 dose gradient dilutions of the compound. 20 nL of the compound was added to a 384-well assay plate (PerkinElmer 6007299) using an Echo 655 Liquid Handler. P53Y220C protein was dissolved in assay buffer to reach a final concentration of 150 nM, and 5 μL thereof was added to each well, and incubated at room temperature for 5 min. DNA was dissolved in assay buffer to reach a final concentration of 150 nM, and 5 μL thereof was added to each well, and incubated at room temperature for 15 min. Anti 6HIS-XL665 (Cisbio 61HISXLB) was dissolved in assay buffer to reach a final concentration of 20 nM, and 5 μL thereof was added to each well. Streptavidin-Eu cryptate (Cisbio 610SAKLA) was dissolved in assay buffer to reach a final concentration of 0.625 nM, and 5 μL thereof was added to each well, and incubated at 27° C. for 1 hour. The plate was then read for signal values on an Envision (PerkinElmer 2105-0020) plate reader at 665 nm and 615 nm, respectively. GraphPad 9.0 was used to fit activation rate and compound concentration into a nonlinear regression curve (dose response-variable slope) to calculate EC50, and EC50 could be defined as the concentration required for the compound to achieve 50% effect. Activation rate={(A-C)/(C)}*100%, A=(signal value at 665 nm/signal value at 615 nm); C=average signal of negative control (wherein, negative control referred to 0.1% DMSO).

[4] = Liver microsome stability test, human (HLM); details: human liver microsomes, NADPH
Method: The 10 mM test compound/ketanserin (Energy Chemical, Cat. No. E020711) stock solution was diluted with acetonitrile to 0.5 mM compound/reference compound. The frozen 100 mM NADPH (MCE, Cat. No. HYF003/CS-4998) was diluted with phosphate buffer solution to a concentration of 6 mM; 20 mg/mL HLM (BioIVT, Cat. No. X008067) or MLM (BioIVT, Cat. No. M00501) was diluted with phosphate buffer solution to a concentration of 0.75 mg/ml, and added to a 96-round well plate, respectively, and shaken evenly on an oscillator at 600 rpm. The above oscillated samples were pipetted 3 times with an electric pipettor and dispensed into a new 96-well plate (containing NADPH group (n=2), NADPH-free group was added at 0 and 45 min (n=1)), and there were a total of 5 groups of 0, 5, 15, 30 and 45 min, respectively. […] The reaction was terminated by quickly adding glacial acetonitrile internal standard using an electric pipettor; after vortexing at 900 rpm for 10 seconds, heat sealing was performed, oscillation was performed on an oscillator for 10 minutes, centrifugation was performed at 4000 rpm for 50 minutes, the supernatant was collected and diluted with pure water, and the test compound and the reference compound were quantified by LC-MS/MS analysis.

CNC(=O)c1ccc(NCC#Cc2cc3c(NC4CC[C@@H](N5CC6(COC6)C5)C[C@@H]4F)cccn3c2CC(F)(F)F)c(OC)c1 (single isomer, unassigned)
CL ([1]; iv 2.5 mpk): 22 mL/min/kg | AUC ([1]; po 25 mpk, plasma): 17194 ng·h/mL | Cmax ([1]; po 25 mpk, plasma): 3638 ng/mL | IC50 ([2]; read-out: IC50 (μM) 0 min, 0 min pre-incubation): 4 µM | IC50 ([2]; read-out: IC50 (μM) 30 min, with NADPH, 30 min pre-incubation with NADPH): 1.69 µM | IC50 ([2]; read-out: IC50 (μM) 30 min, without NADPH, 30 min pre-incubation without NADPH): 4.77 µM | Compound EC50 (nM)/Reference compound EC50 (nM) [3]: A (A: EC50 of the compound≤EC50 of the reference compound) | T1/2 (min) Human [4]: 65.3 min

From US20260132128A1, “COMPOUND FOR RECOVERING P53 MUTATION FUNCTION AND USE THEREOF” (SHENZHEN ZHONGGE BIOLOGICAL TECHNOLOGY CO., LTD., priority 2022, published 2026)
